Data taken from ChEMBL document CHEMBL5137134, “Developing the Natural Prenylflavone Artocarpin from Artocarpus hirsutus as a Potential Lead Targeting Pathogenic, Multidrug-Resistant Staphylococcus aureus, Persisters and Biofilms with No Detectable Resistance” (J Nat Prod, 2022).

System: Staphylococcus aureus
Experiment: Synergistic antibacterial activity against Staphylococcus aureus ATCC 29213 assessed as fractional inhibitory concentration incubated for 24 hrs in presence of artocarpin by checkerboard method
Type: functional

## CN(C)c1ccc(O)c2c1C[C@H]1C[C@H]3[C@H](N(C)C)C(O)=C(C(N)=O)C(=O)[C@@]3(O)C(O)=C1C2=O [MINOCYCLINE]
  FIC: 0.5
